Measured affinities in a library of Ab-14 light chain variants

All variants were tested on one target, the spike HR2 peptide PDVDLGDISGINAS (SARS-CoV-2).

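Phage display of a naive human antibody library on the peptide gave the parent. Designed CDR sequences, proposed from the first random library and measured here. Several design methods are mixed in this list. AlphaSeq pools MATa yeast showing the antibodies with MATalpha yeast showing the peptide. Binding brings cells together so that they mate, and sequencing counts the barcode pairs among the diploids. A regression on co-assayed BCL2-family reference pairs converts the normalised counts of each replicate to an apparent Kd. There are six technical replicates.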

The variants keep the heavy chain, the linker and the frameworks of Ab-14 (scFv order VH, a 15-residue (Gly4Ser)3 linker, VL).
VH: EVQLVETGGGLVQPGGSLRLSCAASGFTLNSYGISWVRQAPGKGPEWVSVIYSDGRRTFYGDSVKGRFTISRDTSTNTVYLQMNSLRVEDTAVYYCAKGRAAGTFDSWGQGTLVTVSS
VL: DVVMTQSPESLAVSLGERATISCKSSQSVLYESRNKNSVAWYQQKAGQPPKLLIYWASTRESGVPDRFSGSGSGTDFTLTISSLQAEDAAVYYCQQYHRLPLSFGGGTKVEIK

Each variant is given by its three light chain CDRs, as the data file delimits them; those of the parent are KSSQSVLYESRNKNSVA, WASTRES, QQYHRLPLS. This list holds designs with at most six substitutions. Values are apparent Kd, the geometric mean of the replicates that gave a signal; lower means stronger binding. Where no diploid with the target was found in any replicate, the entry reads "nd": below detection, most likely a poor binder, though not proof of it.

The variant KSSQSVGYMSRNKNSVA | WASTRES | QQYVRLPLS gave nd (0 of 6 replicates). The variant KLQQSWLYESRNKNSVA | NASQRMS | QQYHRLPLS showed 900 pM (6 of 6 replicates). With KFSQSVLYESRNKNSVA | HASTRVS | QQYSRLPLY the result was 1.9 nM (6 of 6 replicates). For KVSQSYLYESRNKNSVA | NASTRES | QDYHRLPLS, the assay gave 1.1 nM (6 of 6 replicates). The variant KCSSSVLYESRNKNSVA | WASTRES | QQYHRLPLS gave 9.6 nM (4 of 6 replicates). With KSSQSVLYESRNKNSVA | WASARES | QQYYRLPLS the result was 33 nM (3 of 6 replicates). The variant KQPQEKLYESRNKNSVA | DASTRES | QQYHRLPLS gave 710 pM (6 of 6 replicates). With KSSISVLYESGNKNSVA | EASQRES | QQYHRLPLS the result was 3.7 nM (6 of 6 replicates). The variant KQSQSVLEESRNCNSVA | DASTRES | QQYHRLPLS showed 1.7 nM (6 of 6 replicates).

The variant KQSQSFLYESRNVNSVA | GASTRES | QQYHRLPLS gave 9.2 nM (6 of 6 replicates). The variant KVSQSVLYESRNKNSVA | NASTRSS | QQYHRLPLS showed 1.3 nM (6 of 6 replicates). With KCSQSVLYESRNKNSVA | WASTRES | QQYHHLPLS the result was 320 nM (2 of 6 replicates). The variant KQSQSVLYESRNKNAVA | DASTRES | QDYHWLPLS showed 120 nM (6 of 6 replicates). The variant KLSQSVLYESRNKNSVA | GASTRES | QQYHRLPLW gave 590 pM (6 of 6 replicates). For KLSFSVLYESRNKNSVA | NASTRES | QQYHRLPLS, the assay gave 470 pM (6 of 6 replicates). With KSSQSDLYTSRNKNSVA | SASTREQ | QQYHILPLS the result was 1.2 nM (6 of 6 replicates). The variant KVSLSVLYESRNKNSVA | WASQRES | QQYHRLPLS showed 2.3 nM (6 of 6 replicates). The variant KSSEVVLYESHNKNSVA | NASTRMS | QQYHRLPLS showed 2.9 nM (6 of 6 replicates).

The variant KSSQSFLYESRNKNSVA | GASTRES | QQYHRLPLS showed 1.2 nM (6 of 6 replicates). The variant KLSQSVLMESRNKNSVA | NASTRMS | QQYHRLPLS gave 910 pM (6 of 6 replicates). With KLSQSELYESRNKNSVA | EASQRCS | QQYHRLPLS the result was 1.4 nM (6 of 6 replicates). With KASQSVLYESRNKNSVA | WAGVKES | QQYHRLPLS the result was 21 nM (1 of 6 replicates). The variant KISQSVLYESRNKNSVA | NASTRLS | QQYHRLPLS gave 620 pM (6 of 6 replicates). The variant KLQQSVLYESRNKNAVA | NASQRES | QQYHRLPLS gave 550 pM (6 of 6 replicates). For KSLQSVLYESRNKNSVA | HASTRED | SQYHRLPLS, the assay gave nd (0 of 6 replicates). For KSSQSVLKENRNKNSVA | WASTRVS | QQYHRLPFS, the assay gave 460 nM (2 of 6 replicates). The variant KLQQSVLYESRNKNSVA | DASTRCS | QQYHRLPLS gave 5.4 nM (6 of 6 replicates).

The variant KISQSFLYESRNKNSVA | GASTRES | QAYHRLPLS showed 570 pM (6 of 6 replicates). With KLSQSVLYEDRNKNSVA | NASQRES | QQYHRLPLS the result was 340 pM (6 of 6 replicates). The variant KFSQWVLYESRHKNSVA | NASTRES | QQYHRLPLS showed 16 nM (6 of 6 replicates). The variant KVSQSQLYESRNKNSVA | NASTRES | QDYHRLPLS showed 1.1 nM (6 of 6 replicates). The variant KLEGSWLYESRNKNSVA | NASTRES | QQYHRLPLS gave 1.3 nM (6 of 6 replicates). The variant KLSQSVLEESRNKNSVA | WASTRES | QQYHRLPLS gave 2.6 nM (6 of 6 replicates). The variant KSSQSVLYESRNKNSVA | HASTRES | TQYHRLPLS showed nd (0 of 6 replicates). The variant KSSQSVLYESRNKNSVA | WASTRES | QQYIQLPLS showed 82 nM (2 of 6 replicates). For KSSQSVLFESRNKVSVA | DASTRES | QQYHRLPLS, the assay gave 1.5 nM (6 of 6 replicates).

With KSSQFVLYESRNKNSVA | WASTRSS | QVYHRLPLS the result was nd (0 of 6 replicates). The variant KISQSVGYESRNKNSVA | NASQRMQ | QQYHRLPLS gave 490 pM (6 of 6 replicates). With HLSQSVTYESRNKNSVA | NASTRES | QQYHRLPLN the result was 820 pM (6 of 6 replicates). The variant KSSQSALYESRNKNSVA | WASTREG | QQYHELPLS gave 66 nM (1 of 6 replicates). The variant KLSQSMLYESRNWNSVA | NASTRES | QQYHRLPLS showed 520 pM (6 of 6 replicates). The variant KISQSVLYESSNKNSVA | SADTRES | QQYHRLPLS showed 3.2 nM (6 of 6 replicates). The variant KFMQSMPYESRNKNSVA | EASTREL | QQYHRLPLS gave 2.0 nM (6 of 6 replicates). The variant KLQQSELYESRNCNSVA | NASTRES | QQYHRLPLS showed 1.1 nM (6 of 6 replicates). The variant KMSQSVLYESRNKNSVA | NASTREE | QQYHRLPLS gave 660 pM (6 of 6 replicates).

A selection of 6 entries from above:

{"CDR-L1": "KLSQSVLYEDRNKNSVA", "CDR-L2": "NASQRES", "CDR-L3": "QQYHRLPLS", "apparent Kd": "340 pM", "detected": "6 of 6"}
{"CDR-L1": "KQPQEKLYESRNKNSVA", "CDR-L2": "DASTRES", "CDR-L3": "QQYHRLPLS", "apparent Kd": "710 pM", "detected": "6 of 6"}
{"CDR-L1": "KVSQSQLYESRNKNSVA", "CDR-L2": "NASTRES", "CDR-L3": "QDYHRLPLS", "apparent Kd": "1.1 nM", "detected": "6 of 6"}
{"CDR-L1": "KSSQFVLYESRNKNSVA", "CDR-L2": "WASTRSS", "CDR-L3": "QVYHRLPLS", "apparent Kd": "nd", "detected": "0 of 6"}
{"CDR-L1": "KSLQSVLYESRNKNSVA", "CDR-L2": "HASTRED", "CDR-L3": "SQYHRLPLS", "apparent Kd": "nd", "detected": "0 of 6"}
{"CDR-L1": "KISQSVLYESSNKNSVA", "CDR-L2": "SADTRES", "CDR-L3": "QQYHRLPLS", "apparent Kd": "3.2 nM", "detected": "6 of 6"}

The authors' rule: three or more of the six replicates give a measured affinity, fewer mean a poor binder. Background: pairings of all light chain designs with three empty control strains gave a value in 4% of cases (median 430 nM, 5th percentile 38 nM). Values in that range, when seen in few replicates, are hard to tell from nonspecific mating. The parent sequence was in this pool as ten entries: three were never detected, three once, and four in most replicates, with averages from 2.2 nM to 240 nM. A sequence measured in both rounds can read differently, since the two assays cover different ranges.

Values reported by Li et al. 2023, doi:10.1038/s41467-023-39022-2 (FLAb copy).